The text below walks through data of PubChem BioAssay AID678 (Vanderbilt High Throughput Screening Facility, 2007).

This is a selection; strong and weak results do not stand in their true shares. Activity calls are given as the source filed them.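 The calls were made as follows: active = fluorescence response below the plate's average for near-maximal glutamate wells, less 3 SD of those wells; inactive = the rest.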

This assay addresses Metabotropic glutamate receptor 4 (Homo sapiens) (UniProt Q14833). The experiment in a line: human mGluR4 response to M1 antagonist hits, M1 allosteric modulator project, cell-based, antagonist mode, secondary assay 1 (AID 678).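 Also: raw unnormalized fluorescence span taken in the window right after glutamate addition.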 The following applies: CHO-mGluR4 calcium flux, Fluo-4 fluorescence, glutamate EC80; at 10 µM; active compounds read low. (Calcium flux is commonly read through the fluorescence of an indicator in the cells.)
With `O=C(OC1CN2CCC1CC2)C1c2ccccc2Oc2ccccc21` (configuration not stated), the fluorescence response (max-min) was inactive: 257.

Turning to `CCC(CO)(C(=O)OC1CN2CCC1CC2)c1ccccc1` (configuration not stated), the fluorescence response (max-min) was inactive: 232.
